Measurements taken from PubChem BioAssay (NCI).
Where “and” joins values, the source holds several entries; their conditions need not be identical. Equal values may be shown once. This is a selection; strong and weak results do not stand in their true shares.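 Single-concentration screen, 48 h exposure, 96-well plates. Endpoint: percent growth. Below 10 = active.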 Calls of active or inactive are those of the source.

Columns and labels:
Test in all cases: NCI-60 one-dose screen, 48 h (100 = growth as untreated, 0 = no growth, -100 = all killed)
Conditions in all cases: 10 µM unless noted
NCI-H23 lung = tested on: NCI-H23 lung
NCI-H226 lung = tested on: NCI-H226 lung
NCI-H322M lung = tested on: NCI-H322M lung
HOP-62 NSCLC = tested on: HOP-62 NSCLC
NCI-H460 lung = tested on: NCI-H460 lung
HOP-92 NSCLC = tested on: HOP-92 NSCLC
NCI-H522 lung = tested on: NCI-H522 lung
A549/ATCC NSCLC = tested on: A549/ATCC NSCLC
786-0 renal = tested on: 786-0 renal
COLO 205 colon = tested on: COLO 205 colon
DU-145 prostate = tested on: DU-145 prostate
K-562 leukemia = tested on: K-562 leukemia
MALME-3M melanoma = tested on: MALME-3M melanoma
MDA-MB-231 breast = tested on: MDA-MB-231 breast
RXF 393 renal = tested on: RXF 393 renal
SF-268 CNS = tested on: SF-268 CNS
SF-295 CNS = tested on: SF-295 CNS
SF-539 CNS = tested on: SF-539 CNS
UACC-257 melanoma = tested on: UACC-257 melanoma
M14 melanoma = tested on: M14 melanoma

Measured: growth

O=[N+]([O-])N1CCCS1(=O)=O
inactive: NCI-H23 lung 98.9% | NCI-H226 lung 103% | NCI-H322M lung 98.9% | HOP-62 NSCLC 96.1% | NCI-H460 lung 103% | HOP-92 NSCLC 91% | NCI-H522 lung 92.3% | A549/ATCC NSCLC 96.2% | 786-0 renal 104% | COLO 205 colon 107% | DU-145 prostate 108% | K-562 leukemia 95.8% | MALME-3M melanoma 98.4% | MDA-MB-231 breast 115% | RXF 393 renal 110% | SF-268 CNS 89.7% | SF-295 CNS 105% | SF-539 CNS 102% | UACC-257 melanoma 103% | M14 melanoma 105%

Nc1nnc(N)nn1
inactive: NCI-H23 lung 100% | NCI-H226 lung 99.1% | NCI-H322M lung 105% | HOP-62 NSCLC 104% | NCI-H460 lung 119% | HOP-92 NSCLC 91.1% | NCI-H522 lung 105% | A549/ATCC NSCLC 104% | 786-0 renal 109% | COLO 205 colon 121% | DU-145 prostate 119% | K-562 leukemia 125% | MALME-3M melanoma 97.6% | MDA-MB-231 breast 104% | RXF 393 renal 113% | SF-268 CNS 106% | SF-295 CNS 91.8% | SF-539 CNS 99.4% | UACC-257 melanoma 111% | M14 melanoma 113%

O=C(CCC(=O)Oc1c(Cl)cc([N+](=O)[O-])cc1[N+](=O)[O-])Oc1c(Cl)cc([N+](=O)[O-])cc1[N+](=O)[O-]
inactive: NCI-H23 lung 102% | NCI-H226 lung 101% | NCI-H322M lung 112% | HOP-62 NSCLC 96.5% | NCI-H460 lung 106% | HOP-92 NSCLC 99.1% | NCI-H522 lung 103% | A549/ATCC NSCLC 105% | 786-0 renal 107% | COLO 205 colon 116% | DU-145 prostate 112% | K-562 leukemia 92.2% | MALME-3M melanoma 129% | MDA-MB-231 breast 117% | RXF 393 renal 118% | SF-268 CNS 107% | SF-295 CNS 126% | SF-539 CNS 110% | UACC-257 melanoma 109% | M14 melanoma 118%

O=C1CSC(C(Cl)(Cl)Cl)N1c1ccc(Cl)cc1 (centres undefined)
inactive: NCI-H23 lung 98.8% | NCI-H226 lung 98.8% | NCI-H322M lung 87.6% | HOP-62 NSCLC 102% | NCI-H460 lung 101% | HOP-92 NSCLC 77.1% | NCI-H522 lung 84.8% | A549/ATCC NSCLC 96.2% | 786-0 renal 107% | COLO 205 colon 109% | DU-145 prostate 109% | K-562 leukemia 93.5% | MALME-3M melanoma 112% | MDA-MB-231 breast 87.9% | RXF 393 renal 106% | SF-268 CNS 98.6% | SF-295 CNS 84.5% | SF-539 CNS 109% | UACC-257 melanoma 97.9% | M14 melanoma 97.5%

Nc1ccc([As](=O)(O)c2ccc([N+](=O)[O-])cc2)cc1
inactive: NCI-H23 lung 101% | NCI-H226 lung 94.9% | NCI-H322M lung 108% | HOP-62 NSCLC 94.2% | NCI-H460 lung 113% | HOP-92 NSCLC 83.8% | NCI-H522 lung 140% | A549/ATCC NSCLC 106% | 786-0 renal 101% | COLO 205 colon 103% | DU-145 prostate 110% | K-562 leukemia 106% | MALME-3M melanoma 105% | MDA-MB-231 breast 97.1% | RXF 393 renal 82.4% | SF-268 CNS 113% | SF-295 CNS 106% | SF-539 CNS 101% | UACC-257 melanoma 52.6% | M14 melanoma 101%

CCOC(=O)CCNCCSP(=O)(O)O
inactive: NCI-H23 lung 98.1% | NCI-H226 lung 109% | NCI-H322M lung 104% | HOP-62 NSCLC 126% | NCI-H460 lung 102% | HOP-92 NSCLC 88% | NCI-H522 lung 97.8% | A549/ATCC NSCLC 97% | 786-0 renal 101% | COLO 205 colon 127% | DU-145 prostate 108% | K-562 leukemia 109% | MALME-3M melanoma 97.9% | MDA-MB-231 breast 96.7% | RXF 393 renal 98.5% | SF-268 CNS 100% | SF-295 CNS 106% | SF-539 CNS 101% | UACC-257 melanoma 100% | M14 melanoma 98.2%

COc1cc([N+](=O)[O-])c([N+](=O)[O-])cc1OC
inactive: NCI-H23 lung 102% and 100% | NCI-H226 lung 106% and 105% | NCI-H322M lung 101% and 97.4% | HOP-62 NSCLC 109% and 112% | NCI-H460 lung 105% | HOP-92 NSCLC 99.8% and 121% | NCI-H522 lung 86.9% and 107% | A549/ATCC NSCLC 90.7% and 104% | 786-0 renal 104% and 106% | COLO 205 colon 135% and 116% | DU-145 prostate 103% and 108% | K-562 leukemia 80.5% and 86.9% | MALME-3M melanoma 117% and 103% | MDA-MB-231 breast 107% and 115% | RXF 393 renal 118% and 109% | SF-268 CNS 104% | SF-295 CNS 112% and 114% | SF-539 CNS 88.8% and 106% | UACC-257 melanoma 88.8% and 99.7% | M14 melanoma 99.9% and 101%

O=[As]1(O)c2ccccc2-c2ccccc21
inactive: NCI-H23 lung 88.9% | NCI-H226 lung 94.2% | NCI-H322M lung 134% | HOP-62 NSCLC 78.7% | NCI-H460 lung 105% | HOP-92 NSCLC 108% | NCI-H522 lung 97.7% | A549/ATCC NSCLC 93.9% | 786-0 renal 82.4% | COLO 205 colon 126% | DU-145 prostate 108% | K-562 leukemia 85.5% | MALME-3M melanoma 112% | MDA-MB-231 breast 104% | RXF 393 renal 100% | SF-268 CNS 108% | SF-295 CNS 106% | SF-539 CNS 89.7% | UACC-257 melanoma 99.6%
